Laboratory results as given in PubChem BioAssay AID504690 (Sanford-Burnham Center for Chemical Genomics, 2011).
The list shows a part of the results, in another mix than the full data. The source made the active and inactive calls.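 Rule for the calls: active = inhibition reaching at least a set limit at 20 µM in the primary screen (cut at about 59% in these data); inactive = the rest.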

These compounds were tested on glucose-6-phosphate dehydrogenase-6-phosphogluconolactonase (Plasmodium falciparum 3D7) (assay: PfG6PD enzyme inhibitors, primary screen, biochemical, fluorescence intensity, uHTS (AID 504690;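 note: 0% = DMSO wells with substrate and 100% = DMSO wells lacking glucose-6-phosphate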)). Settings: PfGluPho enzyme, NADPH resazurin-diaphorase fluorescence; at 20 µM; active compounds read high.

Row | SMILES | inhibition
1 | CCC(=O)N(c1ccccc1)C1(COC)CCN(CCc2cccs2)CC1 | inactive: 4.72%
2 | CCC(=O)N(c1ccccc1)C1(COC)CCN(CCn2nnn(CC)c2=O)CC1 | inactive: 17.1%
